Chains of the proteins cited; added tags and fusions are not shown. Lines headed by an entry give the natural chain unless they say otherwise; changes in a name come on top.
UniProt O35379: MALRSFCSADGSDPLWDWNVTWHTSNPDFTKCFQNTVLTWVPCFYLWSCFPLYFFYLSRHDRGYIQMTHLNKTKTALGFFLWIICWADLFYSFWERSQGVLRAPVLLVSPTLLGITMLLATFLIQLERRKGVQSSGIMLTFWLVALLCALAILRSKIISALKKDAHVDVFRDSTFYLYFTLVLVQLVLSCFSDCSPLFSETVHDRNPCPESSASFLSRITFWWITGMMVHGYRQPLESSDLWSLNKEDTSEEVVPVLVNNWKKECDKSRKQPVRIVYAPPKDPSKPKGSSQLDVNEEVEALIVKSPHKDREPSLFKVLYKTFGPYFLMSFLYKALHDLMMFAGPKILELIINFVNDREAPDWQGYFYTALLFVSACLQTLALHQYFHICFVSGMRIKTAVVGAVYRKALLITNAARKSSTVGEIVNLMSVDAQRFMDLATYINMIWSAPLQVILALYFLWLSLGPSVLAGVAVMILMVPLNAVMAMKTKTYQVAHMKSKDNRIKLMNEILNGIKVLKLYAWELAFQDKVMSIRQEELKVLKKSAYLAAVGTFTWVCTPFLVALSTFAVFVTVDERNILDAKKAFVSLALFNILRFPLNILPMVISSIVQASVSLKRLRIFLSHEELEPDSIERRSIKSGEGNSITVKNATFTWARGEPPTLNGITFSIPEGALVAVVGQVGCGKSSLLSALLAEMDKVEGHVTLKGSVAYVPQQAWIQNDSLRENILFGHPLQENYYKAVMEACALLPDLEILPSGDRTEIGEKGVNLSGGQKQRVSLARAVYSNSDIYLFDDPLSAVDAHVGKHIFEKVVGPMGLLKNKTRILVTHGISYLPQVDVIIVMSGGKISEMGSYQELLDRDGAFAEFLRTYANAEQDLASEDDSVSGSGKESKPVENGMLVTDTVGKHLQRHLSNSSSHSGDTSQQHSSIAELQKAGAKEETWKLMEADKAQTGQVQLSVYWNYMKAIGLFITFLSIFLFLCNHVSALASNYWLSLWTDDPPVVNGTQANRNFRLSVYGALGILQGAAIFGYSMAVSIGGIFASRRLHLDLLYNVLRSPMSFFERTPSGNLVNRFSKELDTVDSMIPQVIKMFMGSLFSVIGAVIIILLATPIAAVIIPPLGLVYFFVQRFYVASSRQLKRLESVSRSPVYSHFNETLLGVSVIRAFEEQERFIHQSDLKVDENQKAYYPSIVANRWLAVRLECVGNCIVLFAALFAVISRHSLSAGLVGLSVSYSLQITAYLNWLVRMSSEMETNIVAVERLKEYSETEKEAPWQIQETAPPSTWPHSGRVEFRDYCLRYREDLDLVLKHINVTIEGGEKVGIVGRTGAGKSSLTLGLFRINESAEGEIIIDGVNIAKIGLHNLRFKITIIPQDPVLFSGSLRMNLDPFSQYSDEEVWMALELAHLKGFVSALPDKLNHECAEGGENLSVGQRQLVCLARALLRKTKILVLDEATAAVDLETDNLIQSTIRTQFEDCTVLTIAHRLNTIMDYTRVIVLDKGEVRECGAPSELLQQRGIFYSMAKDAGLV

According to patent US9370523B2, “Method for diagnosing or prediagnosing a beta-amyloidopathy or an alpha-synucleopathy” (Immungenetics AG, priority 2010, dated 2016):

Biological target: T1, ABCC1 transporter (Mus musculus, UniProt O35379)
T1 construct: from tissue; host or cells: living APP-transgenic mice (FVB background); ABCC1 is expressed mainly in the plexus choroideus of the brain
Experiment: Treatment of mice with amyloid deposits for 30 days, ELISA measurement of brain Aβ
Assay type: in vivo
Method: Mice with amyloid deposits were treated for 30 days with the anti-emeticthiethylperazine(Torecan®,2-(ethylthio)-10-[3-(4-methylpiperazin-1-yl)propyl]-10H-phenothiazine). 3 mg/kg body weight was administered intramuscularly twice daily. […] The results are reproduced graphically in FIGS. 3a-3e.
APP-transgenic mice (APP, APPdt) were obtained from The Jackson Laboratory (Bar Harbor, USA) and the University of Tübingen (Tübingen, Germany). The NEP-deficient mice were obtained from the Riken Brain Research Institute (Saitama, Japan). ABCG2-, ABCB1-, and ABCC1-deficient mice were obtained from Taconic-Farms (Denmark). All transgenic and knockout mouse lines were hybridised for at least 9 generations in the geneticFVB-background. The mice were held in a 12 h/12 h light/dark cycle at 23° C. with free access to food and water.
For the tissue preparation the mice were killed by cervical dislocation and perfused transcardially with PBS (phosphate-buffered, physiological saline solution). The brain was removed and one hemisphere was stored in buffered 4% paraformaldehydefor paraffin embedding andimmunohistochemistry. The other hemisphere was shock-frozen in liquid nitrogen and stored at −80° C. for biochemical analyses.
ELISA kits (TH40HS, TK42HS) from The Genetics Company (TGC, Schlieren, Switzerland) were used for the quantification of Aβ. Brain hemispheres were homogenised using PreCellys24 (12 s, 6,500 rpm). After addingcarbonate buffer (pH 8.0) the homogenisates were mixed using PreCellys (5 s, 5,000 rpm) and centrifuged for 90 min at 4° C. and 24,000 g, in order to separate insoluble from soluble Aβ species. […] Protein contents of all the samples were measured three times, using a Nanodrop1000 spectrophotometer (ThermoFisher Scientific, Wilmington, USA). […]
TheLillieforsgoodness-of-fit test (alpha=0.05) was applied to the ELISA data and to the log-transformed ELISA data to distinguish between the assumption of normally distributed sample data and the assumption of log-normally distributed sample data. […] Mean confidence intervals were calculated assuming a basic log-normal distribution. […]

Compound: CCSc1ccc2c(c1)N(CCCN1CCN(C)CC1)c1ccccc1S2 [thiethylperazine, 2-(ethylthio)-10-[3-(4-methylpiperazin-1-yl)propyl]-10H-phenothiazine]
- effect on Aβ values (FIGS. 3a-3e), in words (activation of ABCC1 by administration of Torecan): reduces the Aβ values
- Aβ values in mice (FIG. 3e) (change of Aβ values on activation of ABCC1, n=4, *p<0.05): −28%
- reduction in the quantity of Aβ compared to vehicle-treated animals (mice with amyloid deposits, 3 mg/kg body weight intramuscularly twice daily for 30 days, ELISA, vehicle = water): at least 31%
